Test results reported in BindingDB's records for 39563830, “Novel Aminopyrazole Inhibitors of PDE11A for the Treatment of Alzheimer's Disease and Other Types of Dementia”.

By UniProt entry, the sequences of proteins in these tests, tags left out. Where a name states a change or a piece, a line headed by the entry shows the natural chain unless it says otherwise.
UniProt Q9HCR9: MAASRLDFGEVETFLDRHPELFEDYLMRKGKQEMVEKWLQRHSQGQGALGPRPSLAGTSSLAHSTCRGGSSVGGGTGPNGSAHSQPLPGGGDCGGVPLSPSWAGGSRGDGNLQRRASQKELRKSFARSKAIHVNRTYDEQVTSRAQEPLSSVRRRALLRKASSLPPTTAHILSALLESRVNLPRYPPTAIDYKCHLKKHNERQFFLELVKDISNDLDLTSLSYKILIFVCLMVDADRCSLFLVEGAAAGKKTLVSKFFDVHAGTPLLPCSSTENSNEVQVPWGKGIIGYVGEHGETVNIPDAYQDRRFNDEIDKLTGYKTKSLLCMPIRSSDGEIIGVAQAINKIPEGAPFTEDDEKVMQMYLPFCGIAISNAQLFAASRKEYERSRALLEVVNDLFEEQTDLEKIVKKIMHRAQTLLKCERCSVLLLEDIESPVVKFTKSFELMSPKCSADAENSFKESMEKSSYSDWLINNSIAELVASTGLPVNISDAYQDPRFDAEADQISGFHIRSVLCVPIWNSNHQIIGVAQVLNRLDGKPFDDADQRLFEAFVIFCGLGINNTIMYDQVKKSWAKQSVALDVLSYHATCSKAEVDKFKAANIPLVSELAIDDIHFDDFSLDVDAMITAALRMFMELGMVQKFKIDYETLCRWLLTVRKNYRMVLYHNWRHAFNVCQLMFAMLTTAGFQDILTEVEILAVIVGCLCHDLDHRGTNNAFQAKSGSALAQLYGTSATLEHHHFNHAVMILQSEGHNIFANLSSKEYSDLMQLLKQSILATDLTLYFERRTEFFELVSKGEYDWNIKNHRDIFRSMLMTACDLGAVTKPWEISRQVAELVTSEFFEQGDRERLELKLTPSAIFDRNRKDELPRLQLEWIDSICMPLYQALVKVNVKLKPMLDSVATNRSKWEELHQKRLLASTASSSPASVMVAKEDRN

Target: Dual 3',5'-cyclic-AMP and -GMP phosphodiesterase 11A (Homo sapiens, UniProt Q9HCR9)

With `CCN(CC)C(=O)c1cc(-c2nccs2)nc2c1c(C)nn2-c1ccccc1` the IC50 was 895 nM.
